System: B16F10 melanoma cells
Conditions: 0.1% (w/v), 72 hours, compared with arctigenin

In the case of Arctigenin Propionate [Example 2], the “cell toxicity (cell survival rate)” value is reported as “lower in cell toxicity”.

Source: patent US9675538B2, “Anti-aging agent containing arctigenin derivative” (ROHTO Pharmaceutical Co., Ltd., priority 2012, dated 2017)
